Source: PubChem
Most compounds without a hit are left out; they make up all but 4.2% or so of the library.
Yeast UUG start: modulators of start codon recognition fidelity in yeast; S. cerevisiae UUG-firefly luciferase reporter, luminescence/redox ratio; activity score, % at 18.7 µM; hit rate 0.13% among 350,000; AID 602363;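 active = replicate mean at a twofold rise or more, about +100% in these data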;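 note: firefly luciferase made from a UUG start codon reports start codon fidelity; reporter light over untreated wells divided by growth signal over untreated wells; some hits fall short of that in this replicate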
MC4R antag cAMP: antagonists of human melanocortin 4 receptor (MC4R); P32245; MC4R-expressing cells, MTII-stimulated cAMP, LANCE TR-FRET; inhibition, % at 6.5 µM; actives 0.48% (n = 360,000); AID 540295;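 active = inhibition above its plate's cutoff, the mean of tested wells on that plate plus 3 SD, cut at about 29% in these data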
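System: U2OS cells stably expressing human melanocortin 4 receptor (MC4R). Reagent: Melanotan II challenge after compound preincubation. Doses: 6.5 µM. Times: 30-min compound, 1-h challenge, 1-h detection, room temperature. Measured by: TR-FRET with Eu-cAMP and labeled anti-cAMP, 671 nm. Replicates: singlicate.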
HDAC3 inh: inhibitors of human histone deacetylase 3; O15379; recombinant HDAC3, fluorogenic peptide/trypsin coupled, fluorescence; inhibition, % at 8.3 µM; actives 0.15% (n = 320,000); AID 2718; in the data active = inhibition above about 26%, passing the limit was not always enough; inconclusive = no clear call, values can overlap the other calls
NALP1 inh: blocks the NALP1 inflammasome reconstituted in yeast; S. cerevisiae NALP1/ASC/caspase-1 growth, X-gal OD620, 72 h; inhibition, % at 10 µM; actives 0.61% (n = 280,000); in the data active = inhibition mostly above about 24%, no sharp cut-off; inactive = mostly below about 32%
MC4R barr agon: human MC4R agonism via beta-arrestin; P32245; U2OS MC4R beta-arrestin complementation, luminescence; percent of melanotan II response, DMSO zero; activation, % at 8.9 µM; actives 0.98% (n = 360,000); AID 540308;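 active = activation above a per-plate cutoff, the mean activation of sample wells on that plate plus 3 SD, cut at about 8% in these data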
ALR inh: human ALR oxidase inhibition via reduced H2O2; P55789; purified ALR, DTT oxidation, H2O2 HRP-luminol luminescence; inhibition, % (concentration not given with the values); actives 3.8% (n = 290,000); AID 485317;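 active = mean and each replicate at 75% or more; inconclusive = only one of the two met; inactive = neither met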;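 note: stock transfer was 7.5 nL into about 7.5 µL; 0% = neutral wells and 100% = wells with inactivated enzyme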
Numbers stand for hits; 0 = inactive; ? = inconclusive; - = not tested or not shown.

SMILES | Yeast UUG start | MC4R antag cAMP | HDAC3 inh | NALP1 inh | MC4R barr agon | ALR inh
COc1ccc(NC(=O)N2C[C@@H](O)COC[C@@H]3O[C@@H](CC(=O)N4CCCCC4)CC[C@H]32)cc1 | 0 | - | - | - | - | -
CCOc1ccc2nc(NCCNC(=O)Nc3ccccc3)c(C#N)cc2c1 | 0 | 0 | 0 | 0 | 9.6 | 0
CC(=O)Nc1ccc(NCc2cccs2)cc1 | 0 | 0 | 0 | 0 | 0 | 95.1
Oc1ccc(NCc2cccs2)cc1 | 0 | 0 | 0 | 0 | 0 | 95.5
CC(=O)Nc1ccc(NCCc2cccs2)cc1 | 0 | - | - | - | - | -
Cc1noc(C)c1S(=O)(=O)N(C)C[C@@H]1OCCCC[C@H](C)Oc2ccc(NS(=O)(=O)c3ccccc3)cc2C(=O)N([C@@H](C)CO)C[C@H]1C | 0 | - | - | - | - | -
CCOC(=O)Nc1cccc(Nc2ccccc2)c1 | 0 | 0 | 0 | 0 | 0 | 99.0
Cc1ccccc1C(=O)NC1CCN(C(=O)N(c2ccccc2)c2ccccc2)CC1 | 0 | 0 | 0 | 0 | 0 | 86.0
CCCCNC(=O)C(COCc1ccccc1)OC(=O)c1ccccc1 (stereo not given) | 0 | - | - | - | - | -
Cc1ccc(-c2ccc3c(c2)O[C@H](CN(C)CC2CC2)[C@H](C)CN([C@H](C)CO)S3(=O)=O)cc1 | 0 | - | - | - | - | -
O=C(COC(=O)c1ccc(Cl)nc1)NCCC1=CCCCC1 | - | 0 | 0 | 0 | 0 | 87.7
Cc1ccccc1CN1CCN(CC(=O)NCc2ccccc2)CC1 | 0 | 0 | 0 | 0 | 0 | 0
O=C(CN1CCN(Cc2cccc3ccccc23)CC1)NCCc1ccccc1 | 0 | 0 | 0 | 26.6 | 0 | 0
CSc1nc2cc(Oc3cccc(Cl)c3Cl)c(Cl)cc2[nH]1 | 0 | 0 | 29.0 | 0 | 0 | 0
CC(CN1c2ccccc2Sc2ccccc21)N(C)C (stereo not given) | 0 | 0 | 0 | 0 | 0 | 99.0
COc1ccc2c(c1)N(C[C@H](C)CN(C)C)c1ccccc1S2 | 0 | 0 | - | - | 0 | -
CC(CN(C)C)CN1c2ccccc2Sc2ccccc21 (stereo not given) | 0 | 0 | 0 | - | 0 | 99.1
CCN(CC)C(=O)N1c2ccccc2Sc2ccccc21 | 0 | 0 | 0 | 0 | 0 | ?
O=C(Cc1cccc2ccccc12)N/N=C/c1ccc(F)cc1 | 0 | 0 | 0 | 0 | 14.8 | 0
O=C(NCC[C@H]1CC[C@@H](NS(=O)(=O)c2cccc(F)c2)[C@H](CO)O1)C1CC1 | 0 | - | - | - | - | -
C/C=C/c1ccc2c(c1)O[C@@H](CN(C)C(=O)C1CC1)[C@@H](C)CN([C@@H](C)CO)S2(=O)=O | 0 | - | - | - | - | -
[O-][n+]1c2c(c3c4non(O)c4ccc31)CCCC2 | - | 0 | 0 | 0 | 0 | 93.9
CCN1CCN(c2ncnc3c2sc(=S)n3-c2ccccc2)CC1 | 0 | 0 | 0 | 44.4 | 0 | 0
S=c1sc2c(N3CCOCC3)ncnc2n1-c1ccccc1 | 0 | 0 | 0 | 39.2 | 0 | 0
CNC[C@H]1Oc2ccc(N)cc2C(=O)N([C@@H](C)CO)C[C@@H]1C | 0 | - | - | - | - | -
SMILES | Yeast UUG start | MC4R antag cAMP | HDAC3 inh | NALP1 inh | MC4R barr agon | ALR inh
C[C@@H]1CN([C@H](C)CO)S(=O)(=O)c2ccc(-c3cccc(F)c3)cc2O[C@H]1CN(C)C(=O)C1CC1 | 0 | - | - | - | - | -
C=C(C)[C@@H]1CC=C(CO)CC1 | 0 | 0 | - | - | 0 | -
C=C(C)C1CC=C(CN2CC(C)OC(C)C2)CC1 (stereo not given) | 0 | 0 | 0 | 40.7 | 0 | 0
C[C@H]1CN([C@@H](C)CO)C(=O)c2cccc(NC(=O)c3ccc(-c4nccs4)cc3)c2O[C@H]1CN(C)CC1CCCCC1 | 0 | - | - | - | - | -
CCC[C@@H](CNC)NC[C@H](Cc1ccccc1)NCCCCc1ccccc1 | 0 | 0 | 0 | 0 | 0 | 0
CNC[C@@H](Cc1ccccc1)NC[C@@H](CC1CCCCC1)NCCCc1ccccc1 | 0 | 0 | 0 | 0 | 11.5 | 0
COC1(OC)N=C(N)C2(C#N)C(c3ccc(C)cc3)C12C#N (stereo not given) | 0 | 0 | 0 | 0 | 0 | 0
COC1(OC)N=C(NC(=O)Nc2ccccc2)C2(C#N)C(c3ccccc3)C12C#N (stereo not given) | 0 | 0 | 0 | 0 | 0 | 98.8
C[C@H](CO)N1C[C@H](C)[C@@H](CN(C)Cc2cccc(C(=O)O)c2)Oc2ncc(-c3ccccc3F)cc2C1=O | 0 | - | - | - | - | -
Nc1ccc2nc(SCC(=O)c3ccccc3)sc2c1 | 0 | 0 | 0 | - | 0 | 0
Nc1ccc2nc(SCc3ccccc3F)sc2c1 | - | 0 | 0 | - | 0 | 99.2
